For one assay, the system named is S. aureus (ATCC 25923). It is filed as cell-based, Staphylococcus aureus. The conditions noted are these: Mueller-Hinton Broth, 2 × 10^4 CFU/mL, 18 h at 37°C, visible turbidity, complete growth inhibition. The procedure: (§1) The bacterial strains E. coli (KACC 13821, ATCC 11775) and Staphylococcus aureus (KACC 10768, ATCC 25923), and the yeast strain Candida albicans (KCTC 7121, ATCC 14053) were purchased from the Korean Agricultural Culture Collection (KACC) and Korean Collection for Type Cultures (KCTC). Both bacteria and the yeast were cultivated overnight in tryptic soy broth (TSB; Difco, USA) at 200 rpm in a 37°C shaking incubator to the stationary phase. Bacteria were cultivated for 3 h in fresh TSB medium under the same condition to the log phase. The strains were stored with 15% glycerol at −70°C until use.
(§2) In addition, antimicrobial activities of the peptides were also tested by broth microdilution assays against E. coli, S. aureus, and C. albicans. Briefly, microbes were grown overnight in Mueller-Hinton Broth (MHB) to the onset of the stationary phase with shaking at 200 rpm. The cultures were diluted in fresh MHB to a final concentration of 2 × 10^4 CFU/mL. A stock solution of each peptide was prepared to a concentration of 640 μg/mL in 0.01% acetic acid, and was then serially diluted two-fold to reach a concentration of 10 μg/mL. […] The antimicrobial activities of the peptides were assessed by measuring the visible turbidity in each well of the plate after 18 h of incubation at 37°C. Minimum inhibitory concentrations (MICs) are expressed as a specific value that caused complete growth inhibition.

The subject of a further assay is E. coli (ATCC 11775). It is filed as cell-based, Escherichia coli. The settings on record: Mueller-Hinton Broth, 2 × 10^4 CFU/mL, 18 h at 37°C, visible turbidity, complete growth inhibition. The method, then:
as §1, §2

The source of these data is PMC4864078, “De Novo Transcriptome Analysis and Detection of Antimicrobial Peptides of the American Cockroach Periplaneta americana (Linnaeus)” (PLoS ONE, 2016).

Structures are written as SMILES.

On to `CC[C@H](C)[C@H](NC(=O)CN)C(=O)NCC(=O)N[C@@H](C)C(=O)N[C@H](C(=O)N[C@@H](CC(C)C)C(=O)N[C@@H](CCCCN)C(=O)N[C@H](C(=O)N[C@@H](CC(C)C)C(=O)N[C@H](C(=O)N[C@H](C(=O)NCC(=O)N[C@@H](CC(C)C)C(=O)N1CCC[C@H]1C(=O)N[C@@H](C)C(=O)N[C@@H](CC(C)C)C(=O)N[C@H](C(=O)N[C@@H](CO)C(=O)N[C@@H](Cc1c[nH]c2ccccc12)C(=O)N[C@H](C(=O)N[C@@H](CCCCN)C(=O)N[C@@H](CCCNC(=N)N)C(=O)N[C@@H](CCCCN)C(=O)N[C@@H](CCCNC(=N)N)C(=O)N[C@@H](CCC(N)=O)C(=O)N[C@@H](CCC(N)=O)C(N)=O)[C@@H](C)CC)[C@@H](C)CC)[C@@H](C)O)[C@@H](C)O)C(C)C)C(C)C` [Melittin, reference compound], for which the “Minimum Inhibitory Concentration (MIC)” value in the assay on S. aureus (ATCC 25923) worked out at 4 µg/mL; with E. coli (ATCC 11775), 8 µg/mL.
